System: MCA205 cells
Experiment: Anticancer vaccination with doxorubicin-treated MCA205 ± HMGB1 siRNA ± DEN S
Conditions: with or without addition of exogenous DEN S

COc1cccc2c1C(=O)c1c(O)c3c(c(O)c1C2=O)C[C@@](O)(C(=O)CO)C[C@@H]3O[C@H]1C[C@H](N)[C@H](O)[C@H](C)O1 [DX, doxorubicin]
tumor progression after vaccine of doxorubicin-treated, HMGB1-expressing cells: efficient in reducing tumor progression

From US8865653B2, “Method of treatment for immunogenic treatment resistant cancer” (Institut Gustave Roussy, priority 2010, dated 2014)
